Only a part is listed here, and it is no random draw. Records with an inconclusive call do not appear. The source made the active and inactive calls. Calls come from the whole dose curve; as a rule, active = well fitted inhibition curve with a large enough effect; inconclusive = small, poorly fitted or top-dose-only effect; inactive = no such curve, though single readings can be large or run the other way.

Protein sequences, listed by entry. Tags and fused reporters are not part of them.
UniProt O95398, whole entry: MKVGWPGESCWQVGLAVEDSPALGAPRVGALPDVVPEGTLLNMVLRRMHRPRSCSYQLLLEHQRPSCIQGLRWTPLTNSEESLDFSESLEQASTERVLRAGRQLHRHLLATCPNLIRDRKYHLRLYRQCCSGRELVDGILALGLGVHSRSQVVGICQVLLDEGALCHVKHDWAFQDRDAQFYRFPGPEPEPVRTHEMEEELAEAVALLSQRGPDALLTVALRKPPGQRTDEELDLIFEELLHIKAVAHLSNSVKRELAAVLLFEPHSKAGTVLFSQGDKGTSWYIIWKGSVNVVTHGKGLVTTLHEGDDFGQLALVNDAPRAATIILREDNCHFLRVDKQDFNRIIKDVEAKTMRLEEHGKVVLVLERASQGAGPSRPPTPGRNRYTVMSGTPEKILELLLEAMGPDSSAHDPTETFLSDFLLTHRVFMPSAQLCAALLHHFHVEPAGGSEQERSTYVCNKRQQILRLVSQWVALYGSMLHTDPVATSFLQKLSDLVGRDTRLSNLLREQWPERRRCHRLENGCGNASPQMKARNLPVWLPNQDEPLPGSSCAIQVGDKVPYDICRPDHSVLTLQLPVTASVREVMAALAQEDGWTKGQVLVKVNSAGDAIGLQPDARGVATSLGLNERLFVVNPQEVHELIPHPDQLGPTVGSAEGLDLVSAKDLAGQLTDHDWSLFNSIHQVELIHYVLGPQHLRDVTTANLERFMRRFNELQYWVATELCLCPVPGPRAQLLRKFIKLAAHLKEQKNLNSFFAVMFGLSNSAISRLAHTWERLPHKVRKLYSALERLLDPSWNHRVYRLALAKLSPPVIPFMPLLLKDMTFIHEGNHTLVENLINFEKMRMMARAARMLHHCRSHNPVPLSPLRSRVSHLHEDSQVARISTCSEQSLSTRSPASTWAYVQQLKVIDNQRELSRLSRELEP

The experiment deals with Rap guanine nucleotide exchange factor 3 (Homo sapiens) (UniProt O95398). The experiment is described as follows: qHTS for Antagonist of cAMP-regulated guanine nucleotide exchange factor 3 (EPAC1): primary screen.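 Note: plate controls were vehicle for no effect and positive control for full effect; nearly all actives have a fitted effect of over 50% in size.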 The following applies: EPAC1 GEF assay, Rap1b-BODIPY-GDP exchange fluorescence; at 115 µM (top of the series). The source says: In multi-cellular eukaryotic organisms, the effects of cAMP are transduced by two ubiquitously-expressed intracellular cAMP receptors, the classic protein kinase A/cAMP-dependent protein kinase (PKA/cAPK) and the more recently discovered exchange protein directly activated by cAMP/cAMP-regulated guanine nucleotide exchange factor (EPAC/cAMP-GEF). Both PKA and EPAC are ubiquitously expressed in all tissues, and an increase in intracellular cAMP levels will lead to the activation of both PKA and EPAC. […] This qHTS will be used to screen the Molecular Libraries Small Molecule Repository (MLSMR) as a concentration-titration series using the NCGC unique quantitative screening (qHTS) platform to find inhibitors for EPAC1. […] Inhibitors are identified by monitoring the change in fluorescence signal as the exchanged free BODIPY-GDP has a reduced fluorescence compared to Rap1-bound BODIPY-GDP. […]
Briefly, three uL of reagents (100 nM EPAC1, 250 nM RAP1B-BODIPY-GDP, 50 uM GDP) were dispensed into a 1536-well Greiner black solid-bottom medium binding assay plate. […] The assay plates were read at 5 minute intervals for 30 minutes in the ViewLux plate reader using 480nm excitation and 540nm emission filters. […]
On the technique in general: Quantitative high-throughput screening tests each substance at several concentrations.
On to `Cc1cc(C)cc(OP(C)(=O)Nc2ccccn2)c1` (stereo unspecified), for which the activity change, negative = inhibition is inactive: 5.01%.

The record behind these values is PubChem BioAssay AID720709 (National Center for Advancing Translational Sciences (NCATS), 2013).
